Legend:
[1] = Hypothermic responses of AChE transgenic versus control mice to drugs; conditions: single agonist
[2] = tested on: human erythrocyte AChE, human serum BChE, Drosophila nervous system ChE; conditions: in vitro; Loewenstein et al., 1993; cited from earlier work
[3] = tested on: milk cholinesterases (BuChE predominant); assay: Acetylthiocholine hydrolysis by milk cholinesterases with or without iso-OMPA; conditions: Iso OMPA 10 Mμ; milk of control mice and hAChE-E6 transgenics (35 nmol ATCh/minute/ml)
[4] = tested on: endogenous frog (Fr) AChE; assay: Selective inhibition of AChE in embryo homogenates by ecothiophate; conditions: ecothiophate 3.3×10−7 M; value assumed in the algorithm
[5] = molecular target: recombinant human (rH) AChE (Homo sapiens, UniProt P22303); assay: as above; conditions: ecothiophate 3.3×10−7 M; value assumed in the algorithm

By UniProt entry, the sequences of proteins in these tests, tags left out. Where a name states a change or a piece, a line headed by the entry shows the natural chain unless it says otherwise.
UniProt P22303: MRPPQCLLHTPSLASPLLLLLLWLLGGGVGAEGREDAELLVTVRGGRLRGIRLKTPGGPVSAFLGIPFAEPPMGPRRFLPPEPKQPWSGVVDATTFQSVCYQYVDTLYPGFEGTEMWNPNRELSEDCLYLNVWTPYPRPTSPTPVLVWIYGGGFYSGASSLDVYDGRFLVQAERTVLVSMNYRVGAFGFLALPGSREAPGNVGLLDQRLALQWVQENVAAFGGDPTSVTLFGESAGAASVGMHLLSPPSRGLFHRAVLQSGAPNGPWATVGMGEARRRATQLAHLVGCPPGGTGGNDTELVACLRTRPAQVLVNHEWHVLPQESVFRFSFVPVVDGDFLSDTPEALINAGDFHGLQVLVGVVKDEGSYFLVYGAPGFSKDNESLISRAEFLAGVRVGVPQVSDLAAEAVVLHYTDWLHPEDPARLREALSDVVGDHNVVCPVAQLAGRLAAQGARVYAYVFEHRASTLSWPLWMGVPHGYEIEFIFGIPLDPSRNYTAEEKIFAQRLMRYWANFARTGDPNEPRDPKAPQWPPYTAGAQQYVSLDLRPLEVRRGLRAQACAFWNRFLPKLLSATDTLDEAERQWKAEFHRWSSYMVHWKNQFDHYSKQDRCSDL

| Compound | hypothermic response of transgenic compared with control mice [1] | other results |
| --- | --- | --- |
| O=C1CCCN1CC#CCN1CCCC1 | relative resistance | – |
| CN1CCCC1c1cccnc1 (centres unmarked) | relative resistance | – |
| CNC(=O)Oc1cccc2c1OC(C)(C)C2 | – | toxicity to ChEs among six N-methyl carbamates [2]: most toxic |
| CC(C)NP(=O)(NC(C)C)OP(=O)(NC(C)C)NC(C)C | – | inhibition of ATCh hydrolysing activity of milk [3]: over 80% |
| ecothiophate | – | inhibition of frog AChE [4]: 20%; inhibition of rHAChE [5]: 90% |
| 8-OH-DPAT | relative resistance | – |
| Clc1cccc(Cl)c1N=C1NCCN1 | no difference | – |

Source: US6987211B1, “Transgenic non-human mammals producing a cholinesterase in their milk” (dated 2006)
